Drawing on ChEMBL document CHEMBL1128530, “Alpha- and beta-adrenoceptors: from the gene to the clinic. 1. Molecular biology and adrenoceptor subclassification” (J Med Chem, 1995), this text covers Ki for 2 compounds.

By UniProt entry, the sequences of proteins in these tests, tags left out. Where a name states a change or a piece, a line headed by the entry shows the natural chain unless it says otherwise.
UniProt P35368, whole entry: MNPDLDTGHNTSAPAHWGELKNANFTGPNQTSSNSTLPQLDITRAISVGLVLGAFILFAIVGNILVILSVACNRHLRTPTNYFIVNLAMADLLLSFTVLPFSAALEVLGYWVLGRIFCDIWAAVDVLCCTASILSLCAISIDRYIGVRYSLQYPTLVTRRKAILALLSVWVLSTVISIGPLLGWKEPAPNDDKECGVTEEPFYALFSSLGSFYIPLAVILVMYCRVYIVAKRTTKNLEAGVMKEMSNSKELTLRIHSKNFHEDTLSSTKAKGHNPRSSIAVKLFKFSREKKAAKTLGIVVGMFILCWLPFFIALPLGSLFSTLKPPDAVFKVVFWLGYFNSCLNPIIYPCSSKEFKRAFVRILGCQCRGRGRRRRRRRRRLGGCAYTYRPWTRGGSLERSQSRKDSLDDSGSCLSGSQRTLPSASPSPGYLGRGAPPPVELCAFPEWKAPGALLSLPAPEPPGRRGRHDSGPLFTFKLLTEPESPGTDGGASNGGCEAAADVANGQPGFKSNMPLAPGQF
UniProt P30545: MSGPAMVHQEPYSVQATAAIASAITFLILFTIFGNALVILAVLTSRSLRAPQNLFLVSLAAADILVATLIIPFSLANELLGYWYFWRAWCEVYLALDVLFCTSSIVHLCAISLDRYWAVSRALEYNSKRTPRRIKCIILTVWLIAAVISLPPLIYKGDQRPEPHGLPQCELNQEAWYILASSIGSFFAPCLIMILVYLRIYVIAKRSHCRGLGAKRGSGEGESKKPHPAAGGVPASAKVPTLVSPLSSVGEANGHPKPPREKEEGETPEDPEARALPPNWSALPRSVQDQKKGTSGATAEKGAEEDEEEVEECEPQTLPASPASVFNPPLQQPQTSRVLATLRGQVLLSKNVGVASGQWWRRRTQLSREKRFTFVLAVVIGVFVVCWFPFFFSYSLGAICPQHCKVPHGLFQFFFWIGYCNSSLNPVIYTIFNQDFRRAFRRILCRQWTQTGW
UniProt Q01338: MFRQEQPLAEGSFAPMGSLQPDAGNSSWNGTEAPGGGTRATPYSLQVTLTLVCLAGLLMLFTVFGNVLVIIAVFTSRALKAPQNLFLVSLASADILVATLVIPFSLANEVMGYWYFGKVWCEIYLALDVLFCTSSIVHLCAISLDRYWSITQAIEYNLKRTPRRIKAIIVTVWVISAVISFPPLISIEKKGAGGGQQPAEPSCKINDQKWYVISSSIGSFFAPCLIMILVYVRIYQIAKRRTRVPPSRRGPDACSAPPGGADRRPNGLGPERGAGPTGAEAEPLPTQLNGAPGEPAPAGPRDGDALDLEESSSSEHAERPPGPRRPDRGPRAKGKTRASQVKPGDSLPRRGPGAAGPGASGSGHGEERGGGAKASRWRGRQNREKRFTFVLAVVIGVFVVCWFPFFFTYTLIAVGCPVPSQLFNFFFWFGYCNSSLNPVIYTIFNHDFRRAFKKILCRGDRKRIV
UniProt Q01337: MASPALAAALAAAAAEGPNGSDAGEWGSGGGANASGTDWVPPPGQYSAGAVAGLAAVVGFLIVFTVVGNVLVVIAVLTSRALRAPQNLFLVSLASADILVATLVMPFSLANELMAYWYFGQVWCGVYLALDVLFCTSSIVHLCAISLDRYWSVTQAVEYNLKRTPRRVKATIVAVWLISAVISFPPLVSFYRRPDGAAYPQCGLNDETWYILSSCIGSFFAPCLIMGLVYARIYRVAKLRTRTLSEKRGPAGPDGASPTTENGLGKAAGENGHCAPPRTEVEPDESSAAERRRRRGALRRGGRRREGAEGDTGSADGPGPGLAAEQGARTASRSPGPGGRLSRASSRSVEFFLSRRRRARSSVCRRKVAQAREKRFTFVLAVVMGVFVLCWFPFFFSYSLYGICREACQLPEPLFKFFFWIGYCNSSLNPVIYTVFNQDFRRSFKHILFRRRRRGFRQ

Experiment [1] deals with Alpha-1B adrenergic receptor (Homo sapiens, UniProt P35368). Kind of experiment: Binding affinity against Alpha-1B adrenergic receptor from human clone.
Experiment [2] has as its target T1, Alpha-2 adrenergic receptor (Mus musculus, UniProt P30545+Q01338+Q01337). Nature of the experiment: Compound was evaluated for inhibition of binding of [3H]MK-91 to Alpha-2 adrenergic receptor in M alpha-10H (mouse). The class given is protein assay.
The target of experiment [3] is T1, Alpha-2 adrenergic receptor. Kind of experiment: Compound was evaluated for inhibition of binding of [3H]-MK-91 to Alpha-2 adrenergic receptor in Malpha-2 4H. The format is protein assay.

For orientation: Ki means a measure of affinity in units of concentration, obtained from inhibition or displacement.

`COc1cc2nc(N3CCN(C(=O)C4COc5ccccc5O4)CC3)nc(N)c2cc1OC` (stereo not drawn) [DOXAZOSIN]: affinity in experiment [1] was put at a Ki of 0.74 nM. That is a sub-nanomolar value. For the compound `COc1cc2nc(N3CCN(C(=O)c4ccco4)CC3)nc(N)c2cc1OC` [PRAZOSIN], the Ki is listed as 2150 nM in experiment [2] and 97 nM in experiment [3].
